Where “and” joins values, the source holds several entries; their conditions need not be identical. Equal values may be shown once.
biological target: PvNMT (Plasmodium vivax, UniProt A5K1A2); experiment: NMT activity assay (CPM fluorescence detection of free CoA), PvNMT; conditions: calculated as HsNMT IC50/PvNMT IC50

Protein sequences, listed by entry. Tags and fused reporters are not part of them.
UniProt A5K1A2, entry or part of it: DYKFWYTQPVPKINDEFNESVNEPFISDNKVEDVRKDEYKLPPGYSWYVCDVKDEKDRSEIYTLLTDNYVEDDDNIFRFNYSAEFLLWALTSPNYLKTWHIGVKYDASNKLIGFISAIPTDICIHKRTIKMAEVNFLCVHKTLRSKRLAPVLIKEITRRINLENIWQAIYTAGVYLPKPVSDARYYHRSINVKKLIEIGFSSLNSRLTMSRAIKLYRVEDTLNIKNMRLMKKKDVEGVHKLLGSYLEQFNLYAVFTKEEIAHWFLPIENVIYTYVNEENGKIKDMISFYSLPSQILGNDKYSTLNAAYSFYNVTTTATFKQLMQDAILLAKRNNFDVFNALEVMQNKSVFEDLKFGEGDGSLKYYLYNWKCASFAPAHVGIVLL

For Cc1c(CCOc2ccccc2-c2ccnc(N3CCNCC3)c2)c(C(=O)N2CCOCC2)nn1C [Compound 8b, (1,5-Dimethyl-4-(2-(2-(2-(piperazin-1-yl)pyridin-4-yl)phenoxy)ethyl)-1H-pyrazol-3-yl)(morpholino)methanone], the “SI (enzyme selectivity)” value was > 31 and 31.8.
Cc1c(CCOc2ccc3ccccc3c2-c2ccnc(N3CCNCC3)c2)c(C(=O)N2CCOCC2)nn1C [Compound 10b, (1,5-Dimethyl-4-(2-((1-(2-(piperazin-1-yl)pyridin-4-yl)naphthalen-2-yl)oxy)ethyl)-1H-pyrazol-3-yl)(morpholino)methanone] was tested, and the “SI (enzyme selectivity)” value was 125 and 125.3.

Compared with Cc1c(CCOc2ccccc2-c2ccnc(N3CCNCC3)c2)c(C(=O)Nc2cccnc2)nn1C [Compound 8a, 1,5-Dimethyl-4-(2-(2-(2-(piperazin-1-yl)pyridin-4-yl)phenoxy)ethyl)-N-(pyridin-3-yl)-1H-pyrazole-3-carboxamide], Cc1c(CCOc2ccccc2-c2ccnc(N3CCNCC3)c2)c(C(=O)NCCN)nn1C [Compound 8f, N-(2-Aminoethyl)-1,5-dimethyl-4-(2-(2-(2-(piperazin-1-yl)pyridin-4-yl)phenoxy)ethyl)-1H-pyrazole-3-carboxamide] is lower in “SI (enzyme selectivity)” value: 4.9 for the first, 1.2 for the second.

First: CC(=O)CNC(=O)c1nn(C)c(C)c1CCOc1ccccc1-c1ccnc(N2CCNCC2)c1 [Compound 8g, 1,5-Dimethyl-N-(2-oxopropyl)-4-(2-(2-(2-(piperazin-1-yl)pyridin-4-yl)phenoxy)ethyl)-1H-pyrazole-3-carboxamide]
Second: Cc1c(CCOc2ccccc2-c2ccnc(N3CCNCC3)c2)c(C(=O)NCC(=O)O)nn1C [Compound 8c, (1,5-Dimethyl-4-(2-(2-(2-(piperazin-1-yl)pyridin-4-yl)phenoxy)ethyl)-1H-pyrazole-3-carbonyl)glycine]
The “SI (enzyme selectivity)” value of the first is higher: 49.7 for the first, 0.8 for the second.

First: COC(=O)CNC(=O)c1nn(C)c(C)c1CCOc1ccccc1-c1ccnc(N2CCNCC2)c1 [Compound 8i, Methyl (1,5-Dimethyl-4-(2-(2-(2-(piperazin-1-yl)pyridin-4-yl)phenoxy)ethyl)-1H-pyrazole-3-carbonyl)glycinate]
Second: Cc1c(CCOc2ccccc2-c2ccnc(N3CCNCC3)c2)c(C(=O)NCCO)nn1C [Compound 8h, N-(2-Hydroxyethyl)-1,5-dimethyl-4-(2-(2-(2-(piperazin-1-yl)pyridin-4-yl)phenoxy)ethyl)-1H-pyrazole-3-carboxamide]
The “SI (enzyme selectivity)” value of the first is lower: 2.8 for the first, 12.9 for the second.

Going from Cc1c(CCOc2cccnc2-c2ccnc(N3CCNCC3)c2)c(C(=O)NCC(N)=O)nn1C [Compound 9d, N-(2-Amino-2-oxoethyl)-1,5-dimethyl-4-(2-((2′-(piperazin-1-yl)-[2,4′-bipyridin]-3-yl)oxy)ethyl)-1H-pyrazole-3-carboxamide] to Cc1c(CCOc2cccnc2-c2ccnc(N3CCNCC3)c2)c(C(=O)NCC(=O)O)nn1C [Compound 9c, (1,5-Dimethyl-4-(2-((2′-(piperazin-1-yl)-[2,4′-bipyridin]-3-yl)oxy)ethyl)-1H-pyrazole-3-carbonyl)glycine], the “SI (enzyme selectivity)” value falls from 60.9 to 48.3.

With Cc1c(CCOc2cccnc2-c2ccnc(N3CCNCC3)c2)c(C(=O)N2CCOCC2)nn1C [Compound 9b, (1,5-Dimethyl-4-(2-((2′-(piperazin-1-yl)-[2,4′-bipyridin]-3-yl)oxy)ethyl)-1H-pyrazol-3-yl)(morpholino)methanone] the “SI (enzyme selectivity)” value was 35.8.

From paper PMC11089503, “Exploring Subsite Selectivity within Plasmodium vivaxN-Myristoyltransferase Using Pyrazole-Derived Inhibitors” (Journal of Medicinal Chemistry, 2024)
